Assay results reported in US20240009246A1, “CELLULAR-ANTIMICROBIAL COMBINATION COMPOSITION AND METHODS FOR TREATMENT OF BACTERIAL INFECTIONS OF JOINTS AND SOFT TISSUES” (priority 2021, published 2024).

What was measured:
CHONDROCYTES = assay: in vitro cytotoxic activity of antibiotics against dog chondrocytes; assay type: cell-based
Excerpt: (§1) Table 1 and 2 represent in vitro evaluation of the cytotoxic activity of different conventional antibiotics, as assessed for toxicity against dog cells (Table 1) or horse cells (Table 2). Similar toxicity profiles would also be anticipated for human cells. The antibiotics with the highest IC50 values are considered non-cytotoxic, while those with lower values are considered more cytotoxic, and unsuitable for co-administration with activated MSC or activated iMSCs.

SYNOVIOCYTES = assay: in vitro cytotoxic activity of antibiotics against dog synoviocytes; assay type: cell-based
Excerpt: as §1

Ampicillin sulbactam
IC50 (cytotoxicity) (CHONDROCYTES): 8635 µg/mL | IC50 (cytotoxicity) (SYNOVIOCYTES): 3074 µg/mL
